# Test results: PubChem BioAssay AID602144 (Vanderbilt Specialized Chemistry Center, 2011)
# The chains behind the UniProt entries cited, without tags or fusion partners. Where a name states a change or a piece, a line headed by the entry shows the natural chain unless it says otherwise.
# UniProt Q13393: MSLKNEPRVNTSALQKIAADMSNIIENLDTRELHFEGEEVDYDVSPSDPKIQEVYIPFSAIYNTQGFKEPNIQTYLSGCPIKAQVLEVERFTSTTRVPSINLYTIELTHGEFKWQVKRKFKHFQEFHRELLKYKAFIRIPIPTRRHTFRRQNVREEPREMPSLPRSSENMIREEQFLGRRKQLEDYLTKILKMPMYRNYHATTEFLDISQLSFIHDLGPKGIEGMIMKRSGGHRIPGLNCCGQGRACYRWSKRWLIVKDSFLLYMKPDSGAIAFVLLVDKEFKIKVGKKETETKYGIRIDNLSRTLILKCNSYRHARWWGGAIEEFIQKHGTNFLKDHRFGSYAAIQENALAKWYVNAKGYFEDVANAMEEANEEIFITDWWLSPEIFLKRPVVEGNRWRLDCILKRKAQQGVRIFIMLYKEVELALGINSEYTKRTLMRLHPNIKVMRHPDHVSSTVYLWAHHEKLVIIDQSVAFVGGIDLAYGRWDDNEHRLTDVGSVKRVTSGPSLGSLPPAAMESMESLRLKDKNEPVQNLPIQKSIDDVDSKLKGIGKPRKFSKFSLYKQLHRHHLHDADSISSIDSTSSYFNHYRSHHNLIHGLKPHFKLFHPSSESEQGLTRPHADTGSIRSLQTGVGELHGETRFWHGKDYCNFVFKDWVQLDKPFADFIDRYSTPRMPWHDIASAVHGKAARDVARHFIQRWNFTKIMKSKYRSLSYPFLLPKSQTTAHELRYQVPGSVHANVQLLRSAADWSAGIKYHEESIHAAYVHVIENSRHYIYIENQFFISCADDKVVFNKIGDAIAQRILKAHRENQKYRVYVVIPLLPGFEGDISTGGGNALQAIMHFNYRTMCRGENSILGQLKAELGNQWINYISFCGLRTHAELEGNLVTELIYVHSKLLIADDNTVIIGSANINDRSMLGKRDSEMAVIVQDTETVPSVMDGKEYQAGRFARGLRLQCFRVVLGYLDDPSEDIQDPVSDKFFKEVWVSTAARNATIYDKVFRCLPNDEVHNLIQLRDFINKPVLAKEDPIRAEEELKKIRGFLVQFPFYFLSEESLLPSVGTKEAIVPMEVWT
# Shown are results outside the selection of hits, which stands elsewhere. The source made the active and inactive calls. Rule as the data show it: active = remaining activity below about 50%; inactive = the rest.
# Target: Phospholipase D1 (Homo sapiens) (UniProt Q13393)
# Experiment: cellular phospholipase D1 activity inhibition – Calu-1 cells, single concentration (AID 602144);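 also: tested at 200 nM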
# Details: cellular PLD1 activity, stronger effect = lower value
smiles,measurement,value
O=C(NCCN1CCC2(CC1)C(=O)NCN2c1cccc(F)c1)c1ccc2ccccc2c1,remaining activity,inactive: 83.3%
